Measured values published in PubChem BioAssay AID504577 (NMMLSC, 2011).
Only a part is listed here, and it is no random draw. The source made the active and inactive calls. Rule as the data show it: active = response mostly above about 7.3% (no sharp cut-off); inactive = mostly below about 5.4%.

Experiment: yeast vacuolar ATPase proton transport modulators – pHLuorin cytosolic pH fluorescence, primary screen (AID 504577); also: actives read high
Details: S. cerevisiae, at 10 µM, stronger effect = higher value

Row | Structure (SMILES) | response
1 | Cc1cc(=O)[nH]c(N[N+](=O)[O-])n1 | inactive: 1.14%
2 | Cc1c2c(nc3ccccc13)SC(C(Cl)Cl)C2 (stereo not given) | inactive: 4.62%
3 | COc1ccc2nc(NP(=O)(c3ccccc3)c3ccccc3)sc2c1 | inactive: -1.93%
4 | COc1cc(I)ccc1[As](=O)(O)O | inactive: -0.72%
5 | O=P1(N(CCCl)CCCl)Nc2ccccc2N1 | inactive: 1.67%
6 | O=P1(N(CCCl)CCCl)OCCCN1CCCl (stereo not given) | inactive: -1.24%
7 | COC(=O)C1(C)COP(=O)(N2CCCCCC2)OC1 (stereo not given) | inactive: -1.32%
8 | CC(C)c1ccc(OP(=O)(Nc2ccccn2)Oc2ccccc2F)cc1 (stereo not given) | inactive: 4.63%
9 | ClCCSc1nnc(-c2cccnc2)o1 | inactive: -2.8%
10 | CC(C)NC(=O)NP(=O)(Oc1ccccc1)Oc1ccccc1 | inactive: -1.26%
11 | CCN(CC)C(=S)SC(NC=O)C(Cl)(Cl)Cl (stereo not given) | inactive: 0.4%
12 | O=C(OC1CN2CCC1CC2)c1cccc2[nH]cnc12 (stereo not given) | inactive: 5.82%
13 | O=[N+]([O-])c1cc([N+](=O)[O-])c(-c2ccn[nH]2)s1 | inactive: 5.13%
14 | C[As](=O)(O)c1cccc(C(=O)O)c1 | inactive: -0.21%
15 | O=[As](O)(c1ccc(O)cc1)c1ccccc1O | inactive: 1.07%
16 | O=[N+]([O-])c1ccc(-c2cc([N+](=O)[O-])c(O)c([N+](=O)[O-])c2)cc1 | inactive: -2.73%
17 | COc1cc(C(=O)NCC2(N3CCOCC3)CCCCC2)ccc1OCC(C)C | inactive: -6.37%
18 | Cc1ccc2nc3c(c(C)c2c1)CC(C(Cl)Cl)S3 (stereo not given) | inactive: -2.35%
19 | Cc1ccc(OP(=O)(Nc2ccc([N+](=O)[O-])cn2)Oc2ccc(C)cc2)cc1 | inactive: 2.66%
20 | CCOC(=O)Nc1cccc([As](=O)(O)O)c1 | inactive: -0.38%
21 | O=[N+]([O-])c1ccc(Nc2ccc(Oc3ccc([N+](=O)[O-])cc3[N+](=O)[O-])cc2)c([N+](=O)[O-])c1 | inactive: 0.34%
22 | O=P(Nc1ccccn1)(c1cccc2ccccc12)c1cccc2ccccc12 | inactive: -0.14%
23 | Cc1cc(SC(NC=O)C(Cl)(Cl)Cl)ncn1 (stereo not given) | inactive: -0.51%
24 | CC1CCNP(=O)(N(CCCl)CCCl)O1 (stereo not given) | inactive: 2.94%
25 | CCOC(=O)Nc1ccc([As](=O)(O)O)c(O)c1 | inactive: 1.03%

Row | Structure (SMILES) | response
26 | O=C(O)C(O)c1ccc(N(CCCl)CCCl)cc1 (stereo not given) | inactive: -1.19%
27 | CCCCOc1ccc(C(=O)NCC2(N3CCCCC3)CCCCC2)cc1OC | inactive: -1.52%
28 | Cc1cc(SC(NC(=O)c2ccccc2)C(Cl)(Cl)Cl)nc(C(C)C)n1 (stereo not given) | inactive: -0.5%
29 | COP(=O)(OC)N1CC1c1ccccc1 (stereo not given) | inactive: -1.06%
30 | CCOC(=O)c1ccc(NC(=O)C(C)(CCl)SC)cc1 (stereo not given) | inactive: 0.89%
31 | O=C(OC1CN2CCC1CC2)c1cccc([N+](=O)[O-])c1 (stereo not given) | inactive: 1.61%
32 | CSc1ccc(Nc2c([N+](=O)[O-])cc([N+](=O)[O-])cc2[N+](=O)[O-])cc1 | inactive: 0.9%
33 | CCC(C)N(CC(C)C)C(=S)SC(NC(C)=O)C(Cl)(Cl)Cl (stereo not given) | inactive: 6.47%
34 | COP1(=S)c2c(C)nn(CCC#N)c2N=C(c2ccc(F)cc2)N1C (stereo not given) | inactive: 0.73%
35 | O=C(COc1ccccc1)OC1CN2CCC1CC2 (stereo not given) | inactive: 0.36%
36 | O=C(Nc1ccncc1[N+](=O)[O-])c1ccc([N+](=O)[O-])cc1[N+](=O)[O-] | inactive: 1.16%
37 | O=C(O)C(=O)c1ccc(N(CCCl)CCCl)cc1 | inactive: 3.39%
38 | Nc1ccc([As](=O)(O)c2ccc(N)cc2)cc1 | inactive: -5.39%
39 | C[N+]1=C2C=CC=CC=C2SC12C([N+](=O)[O-])=CC([N+](=O)[O-])=C[C-]2[N+](=O)[O-] (stereo not given) | inactive: -0.28%
40 | CCN(/C(=N/P(=O)(N1CCOCC1)N1CCOCC1)N1CCOCC1)c1ccc(OC)cc1 | inactive: 2%
41 | CC(C)c1nc(Nc2ccccc2)n(P(=O)(N(C)C)N(C)C)n1 | inactive: 1%
42 | CC(C)=N/N=C(\N)N[N+](=O)[O-] | inactive: -1.89%
43 | CN(C)C(=O)OCCc1n(C)cc[n+]1C | inactive: -2.42%
44 | CC1CCN(C(=O)Oc2c(Cl)cc(Cl)c3cccnc23)CC1 | inactive: 3.51%
45 | c1cc(-c2nn[nH]n2)ccc1-c1nn[nH]n1 | inactive: -0.88%
46 | COc1ccc(C2=NCC(CBr)S2)cc1 (stereo not given) | inactive: 1.5%
47 | O=[N+]([O-])c1cccc2n[nH]nc12 | inactive: 4.36%
48 | CC(=O)N1C2C3N(C(C)=O)C1C1N(C(C)=O)C(C(N1C(C)=O)N3C(C)=O)N2C(C)=O | inactive: -0.47%
49 | Cc1ccc(NP(=O)(Oc2ccccc2)Oc2ccccc2)nc1 | inactive: 4.03%
50 | CCc1nc2c(n1)c1c(non1O)c1c2no[n+]1[O-] | inactive: 0.17%
